One compound from patent US9278527B2, “Ink jet recording ink, ink jet recording method, ink jet recording head, and ink jet recording apparatus” (CANON FINETECH INC., priority 2013, dated 2016) can be followed below.

The data set in a line: Hydrophilicity-hydrophobicity coefficient from water activity value of 20% aqueous solution (equation (A)). The data set is classed as physicochemical. The conditions noted are these: water activity by chilled mirror dew point method (AquaLab CX-3TE) at 25° C.

In turn, `OCC(O)COCC(O)CO` (stereo not shown) [Diglycerin] displayed a Hydrophilicity-hydrophobicity coefficient of 0.08.
